Reference: US12077555B2, “STAT degraders and uses thereof” (Kymera Therapeutics, Inc., priority 2019, dated 2024)

The chains behind the UniProt entries cited, without tags or fusion partners.
UniProt P40763, whole entry: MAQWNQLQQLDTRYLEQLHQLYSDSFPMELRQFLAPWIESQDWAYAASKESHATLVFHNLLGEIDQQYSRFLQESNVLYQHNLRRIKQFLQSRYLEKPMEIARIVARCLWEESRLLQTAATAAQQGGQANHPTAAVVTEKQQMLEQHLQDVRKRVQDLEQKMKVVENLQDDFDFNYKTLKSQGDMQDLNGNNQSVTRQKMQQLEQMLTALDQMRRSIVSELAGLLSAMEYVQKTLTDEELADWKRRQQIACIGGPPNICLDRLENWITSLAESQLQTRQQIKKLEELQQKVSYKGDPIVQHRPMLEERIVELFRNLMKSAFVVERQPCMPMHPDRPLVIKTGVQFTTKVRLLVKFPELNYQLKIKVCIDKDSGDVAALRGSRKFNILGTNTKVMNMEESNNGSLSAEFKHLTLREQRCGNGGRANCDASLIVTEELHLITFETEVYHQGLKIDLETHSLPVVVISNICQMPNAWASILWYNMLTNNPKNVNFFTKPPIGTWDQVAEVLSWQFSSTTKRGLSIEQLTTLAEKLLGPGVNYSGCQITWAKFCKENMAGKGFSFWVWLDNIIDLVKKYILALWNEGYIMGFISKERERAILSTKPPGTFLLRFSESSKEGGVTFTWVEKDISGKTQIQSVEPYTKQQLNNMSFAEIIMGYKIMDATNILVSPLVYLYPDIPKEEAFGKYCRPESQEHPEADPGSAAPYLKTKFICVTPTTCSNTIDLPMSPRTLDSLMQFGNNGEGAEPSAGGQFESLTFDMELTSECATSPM

Experiments:
STAT3 [1] = molecular target: T1, STAT3 (Homo sapiens, UniProt P40763); experiment: STAT3 HiBiT degradation assay in transfected A549 cells; conditions: read-out: STAT3 HiBiT A549 degradation 24 h: Average external-Abs DC50, A549, 24 h
Procedure: Compound preparation and Cell seeding: The transfected A549 cells were harvested from dish into cell culture medium and cell numbers counted. Cells were diluted with culture medium to the desired density and 30 μL of cell suspension (about 2000 cells/well) were added into each well of a 384-well cell culture plate as designated and transferred into 37° C. 5% CO2 incubator for 24 h. Compounds were dissolved to 10 mM stock solution and 12 μL of the stock solution was transferred to a 384 LDV-plate. 3 fold, 10-point dilution was performed by transferring 4 μL compound into 8 μL DMSO using a TECAN (EVO200) liquid handler. 30 μL of diluted compound from compound source plate was transferred into the cell plate as designated by using Echo550 and transferred into 37° C. 5% CO2 incubator for 24 h.
Detection: Plates were removed from incubators and equilibrated at room temperature for 15 minutes. Nano-Glo Hibit Lytic Detection reagent (Promega Cat #N3040) was thawed and equilibrated to room temperature before the experiment. 30 μL of Nano-Glo Hibit Lytic Detection reagent was added into each well to be detected. The plates were held at room temperature for 10 min followed by reading on EnSpire.
Data analysis: The remaining activity was calculated following the formula: Remaining Activity (%)=100%×(Lumsample−LumNC)/(LumPC−LumNC). […]

STAT3 [2] = molecular target: T1, STAT3; experiment: Quantitation of STAT3 degradation in A549 cells by Western blot; assay type: cell-based
Procedure: Degradation of total cellular STAT3 protein in A549 was quantitatively measured using SDS-PAGE and Western blot analysis. A549 cells (5×10^5 cells/well, 2 mL) were seeded into 6-well plates and were incubated in the incubator under 5% CO2 overnight to reach ˜80% confluency. The next day, the culture medium was changed with 1 ml fresh media. Then, 1 mL of media containing 2× compound solution was added into the well to make the final concentration of 30 μM, 10 μM, 3 μM, 1 μM, 0.3 μM and 0 μM (DMSO). The media was thoroughly mixed and incubated for 24 hours at 37° C. under 5% CO2. Then, the culture media was removed from the assay plates and the cells were washed with ice-cold PBS twice. To prepare cell lysates, 200 ul pre-chilled RIPA lysis buffer (Boston BioProducts BP-115D) with protease/phosphatase inhibitor (Roche 05892791001/Roche 04906837001) was added directly into the well to lyse the cells for 20 minutes on ice. The cell lysates were then transferred to centrifuge tubes. Insoluble part of lysates was removed by centrifuging the lysates at 13000 rpm for 20 minutes. The supernatant was then collected and mixed with 5× loading buffer (Beyotime Bio P0015) to make the final samples for SDS-PAGE analysis. The samples were heated at 100° C. for 10 minutes and cool to room temperature before centrifuging at 13000 rpm for 20 minutes. To analyze the samples by SDS-PAGE, 10 ul samples were loaded onto SDS-PAGE gel (Novex, WG1403BOX) and the SDS-PAGE gel was run for 20 minutes at 80 V, then at 120 V for 1.5 hours. The SDS-PAGE gel was then transferred to nitrocellulose membrane using the wet-transfer method at 250 mA for 1.5 hours. The membrane was then blocked with LI-COR blocking buffer (LI-COR, 927-50000) for 1 hour and was probed with primary antibody (mouse anti-STAT3 (124H6) (CST #91395) 1:2000 or mouse anti-beta-Actin (8H10D10) (CST #3700) 1:10000) at 4° C. overnight. The membrane was then washed three times with TBST buffer and probed with secondary antibody (anti-mouse IgG (LI-COR, 926-68070), 1:5000) for 1 hour at room temperature. The membrane was then scanned on a LI-COR Odyssey instrument and was quantified using Image Studio Version 5.2. Concentration at 50% degradation (DC50) was calculated by fitting dose dependent degradation data using a sigmoidal equation using GraphPad Prism Version 8.0.

SU-DHL-1 tumor cells = experiment: Xenograph tumor study, SU-DHL-1; conditions: SUDHL-1 xenograph, IP, 2.5-30 mg/kg, 2 days on/5 days off, tested form: diammonium
Procedure: Animals: 50 6-8 week old female NOD SCID mice weighing 18 to 20 grams. 25 mice were used in each study.
Method for Tumor Inoculation: Each mouse was inoculated subcutaneously with SU-DHL-1 tumor cells (1×107+Matrigel) or SUP-M2 tumor cells (5×106+Matrigel) in 0.1 ml of RPMI1640 medium supplemented with 10% FBS, 100 U/ml penicillin and […] streptomycin for tumor development. Mice were then assigned to groups such that the mean tumor volume was the same for each treatment group and time point. […] Vehicle was 25% HP-β-CD in water adjusted to pH 7.4.
Measurement Parameters: Study animals were monitored not only for tumor growth but also behavior such as mobility, food and water consumption (by cage side checking only), body weight (BW), eye/hair matting and any other abnormal effect. Any mortality and/or abnormal clinical signs was recorded. Sponsor was notified immediately if abnormal clinical signs, or if tolerability issues were observed. Body weights of all animals were measured and recorded twice per week. The measurement of tumor size was conducted twice weekly with a caliper and recorded. The tumor volume (mm3) was estimated using the formula: TV=a×b2/2, where “a” and “b” are long and short diameters of a tumor, respectively.

[3] = read-out: A549 DC50, 24 hours, tested up to 30 μM or 10 μM, tested form: diammonium
[4] = read-out: A549 DC50, 24 hours, tested up to 30 μM or 10 μM

SMILES	DC50 (STAT3 [2]; [3]) [µM]	DC50 (STAT3 [2]; [4]) [µM]	also measured
Cc1ncsc1-c1ccc(CNC(=O)[C@@H]2C[C@@H](O)CN2C(=O)[C@@H](NC(=O)CCCCCCCCCC(=O)N2CC[C@H]3CC[C@@H](C(=O)N[C@@H](CCC(N)=O)C(=O)NC(c4ccccc4)c4ccccc4)N3C(=O)[C@@H](NC(=O)c3cc4cc(C(=O)P(=O)(O)O)ccc4[nH]3)C2)C(C)(C)C)cc1	–	–	DC50 (STAT3 [1]): > 1 µM
C/C(=C\C(=O)N[C@H]1CCc2cccc3c2N(C1=O)[C@H](C(=O)N[C@@H](CCC(N)=O)[C@@H](C)OCc1ccc(CCCCC(=O)N[C@H](C(=O)N2C[C@H](O)C[C@H]2C(=O)N[C@@H](C)c2ccc(-c4scnc4C)cc2)C(C)(C)C)cc1)C3)c1ccc(C(F)(F)P(=O)(O)O)cc1	< 30	–	–
C/C(=C\C(=O)N[C@H]1CCc2cccc3c2N(C1=O)[C@H](C(=O)N[C@@H](CCC(N)=O)[C@@H](C)OCc1ccc(CCCNC(=O)COCCOCCOCCCc2ccc4c(c2)n(C)c(=O)n4C2CCC(=O)NC2=O)cc1)C3)c1ccc(C(F)(F)P(=O)(OCOC(=O)C(C)(C)C)OCOC(=O)C(C)(C)C)cc1 (stereo partly shown)	–	> 30	–
C/C(=C\C(=O)N[C@H]1CCc2cccc3c2N(C1=O)[C@H](C(=O)N[C@@H](CCC(N)=O)[C@@H](C)OCc1ccc(CCCCCOc2cc(-c4scnc4C)ccc2CNC(=O)[C@@H]2C[C@@H](O)CN2C(=O)[C@@H](NC(=O)C2(F)CC2)C(C)(C)C)cc1)C3)c1ccc(C(F)(F)P(=O)(OCOC(=O)C(C)(C)C)OCOC(=O)C(C)(C)C)cc1	–	> 30	–
CNC(=O)CC[C@H](NC(=O)[C@@H]1Cc2cccc3c2N1C(=O)[C@@H](NC(=O)/C=C(\C)c1ccc(C(F)(F)P(=O)(O)O)cc1)CC3)[C@@H](C)OCc1ccc(CCCCC(=O)N[C@H](C(=O)N2C[C@H](O)C[C@H]2C(=O)NCc2ccc(-c3scnc3C)cc2)C(C)(C)C)cc1	> 30	–	–
C/C(=C\C(=O)N[C@H]1CCc2cccc3c2N(C1=O)[C@H](C(=O)N[C@@H](CCC(N)=O)[C@@H](C)OCc1ccc(CCCNC(=O)CCc2ccc4c(c2)n(C)c(=O)n4C2CCC(=O)NC2=O)cc1)C3)c1ccc(C(F)(F)P(=O)(OCOC(=O)C(C)(C)C)OCOC(=O)C(C)(C)C)cc1 (stereo partly shown)	–	> 30	–
C/C(=C\C(=O)N[C@H]1CCc2cccc3c2N(C1=O)[C@H](C(=O)N[C@@H](CCC(N)=O)[C@@H](C)OCc1ccc(CCCOCCOCCCc2cccc4c2n(C)c(=O)n4C2CCC(=O)N(C)C2=O)cc1)C3)c1ccc(C(F)(F)P(=O)(OCOC(=O)C(C)(C)C)OCOC(=O)C(C)(C)C)cc1 (stereo partly shown)	–	> 30	–
Cc1ncsc1-c1ccc(CNC(=O)[C@@H]2C[C@@H](O)CN2C(=O)[C@@H](NC(=O)CCCCCc2ccccc2CO[C@H](C)[C@H](CCC(N)=O)NC(=O)[C@@H]2Cc3cccc4c3N2C(=O)[C@@H](NC(=O)c2cc3cc(C(=O)P(=O)(O)O)ccc3[nH]2)CC4)C(C)(C)C)cc1	< 30	–	–
CC(=O)N1CC[C@H]2CC[C@@H](C(=O)N[C@@H](CCC(N)=O)COc3cccc(CCCCCC(=O)N[C@H](C(=O)N4C[C@H](O)C[C@H]4C(=O)N[C@@H](C)c4ccc(-c5scnc5C)cc4)C(C)(C)C)c3F)N2C(=O)[C@@H](NC(=O)c2cc3cc(C(=O)P(=O)(O)O)ccc3[nH]2)C1	–	–	tumor volume, 5 days (SU-DHL-1 tumor cells; 5 days): A (A<500 mm^3); tumor volume, 10 days (SU-DHL-1 tumor cells; 10 days): A (A<500 mm^3); tumor volume, 15 days (SU-DHL-1 tumor cells; 15 days): A (A<500 mm^3); tumor volume, 20 days (SU-DHL-1 tumor cells; 20 days): A (A<500 mm^3); DC50 (STAT3 [1]; tested form: diammonium): < 0.01 µM
